These results are taken from patent publication US5051428A, “2-amino-4 or 5-methoxycyclohexyl amides useful as analgesics” (dated 1991).

The chains behind the UniProt entries cited, without tags or fusion partners. Where a name states a change or a piece, a line headed by the entry shows the natural chain unless it says otherwise. Residues count along the entry.
UniProt A0ACM8Q262, 1-400: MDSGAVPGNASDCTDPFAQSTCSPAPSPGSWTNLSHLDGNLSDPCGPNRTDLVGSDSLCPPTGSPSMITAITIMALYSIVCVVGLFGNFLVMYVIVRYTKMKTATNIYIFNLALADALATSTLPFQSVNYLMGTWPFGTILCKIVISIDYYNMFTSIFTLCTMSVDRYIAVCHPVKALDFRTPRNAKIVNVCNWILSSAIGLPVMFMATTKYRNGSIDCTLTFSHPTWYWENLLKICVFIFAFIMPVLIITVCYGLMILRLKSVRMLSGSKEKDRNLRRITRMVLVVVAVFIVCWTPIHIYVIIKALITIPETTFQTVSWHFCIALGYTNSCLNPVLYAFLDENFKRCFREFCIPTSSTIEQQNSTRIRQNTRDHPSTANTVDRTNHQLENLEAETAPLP
UniProt P41144: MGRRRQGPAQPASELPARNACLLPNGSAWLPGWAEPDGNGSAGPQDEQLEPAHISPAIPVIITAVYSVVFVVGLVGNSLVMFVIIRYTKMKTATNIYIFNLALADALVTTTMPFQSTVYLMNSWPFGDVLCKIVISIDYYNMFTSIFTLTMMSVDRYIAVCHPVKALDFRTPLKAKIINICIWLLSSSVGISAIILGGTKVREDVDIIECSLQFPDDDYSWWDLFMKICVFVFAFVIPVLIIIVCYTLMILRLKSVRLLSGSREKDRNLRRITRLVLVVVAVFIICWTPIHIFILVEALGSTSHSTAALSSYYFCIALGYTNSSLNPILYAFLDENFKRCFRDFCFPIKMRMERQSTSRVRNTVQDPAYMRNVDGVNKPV

The subject of experiment [1] is rat paw pressure. As to the kind of experiment: rat paw pressure analgesia test (M. B. Tyers). The conditions noted are these: I.V.; dose producing 50% of maximum possible analgesic effect; single experiment, six animals per dose level.
For experiment [2], the target named is mu opioid receptor (Cavia porcellus, UniProt A0ACM8Q262). As to the kind of experiment: mu opioid receptor binding (tritiated DAGO, guinea pig brain homogenate). The conditions noted are these: read-out: Opioid Binding (Ki nM) mu; mean ± standard error of the mean; triplicate, at least two separate experiments.
For experiment [3], the target named is kappa opioid receptor (Cavia porcellus, UniProt P41144). Nature of the experiment: kappa opioid receptor binding (tritiated etorphine, guinea pig brain homogenate, DADLE and DAGO added). The conditions noted are these: for Opioid Binding mu/k: ratio of mu Ki to kappa Ki; for Ki: read-out: Opioid Binding (Ki nM) kappa, mean ± standard error of the mean, triplicate, at least two separate experiments.

The subject of experiment [4] is kappa opioid receptor. The conditions noted are these: reported in literature, in words; cited from earlier work.

Where only a bound is given, the exact number is not on record here.

For orientation: Ki means the dissociation constant of the complex between target and ligand, obtained from inhibition or displacement. As to `CO[C@H]1CC[C@@H](N(C)C(=O)Cc2cccc3occc23)[C@H](N2CCCC2)C1` (relative stereo), in experiment [1], the “Rat Paw Pressure MPE50” value is listed as 0.07 mg/kg. For the same molecule, the Ki amounted to 2200 nM in experiment [2] and 22 nM in experiment [3]. In experiment [3], the Opioid Binding mu/k was determined as 100.

Regarding `CO[C@H]1CC[C@@H](N(C)C(=O)C2c3ccccc3-c3ccccc32)[C@H](N2CCCC2)C1` (relative stereo), the Ki in experiment [2] worked out at 28 nM. Further, in experiment [3], the Opioid Binding mu/k amounted to 33 and the Ki was 0.84 nM.

Consider `CO[C@@H]1CC[C@@H](N2CCCC2)[C@H](N(C)C(=O)Cc2cccc3occc23)C1` (relative stereo), for which the “Rat Paw Pressure MPE50” value in experiment [1] was determined as 1.5 mg/kg. Moreover, the Ki in experiment [2] came out at 4300 nM. For the same molecule, in experiment [3], the Opioid Binding mu/k was 179 and the Ki came out at 24 nM.

Take `CN(C(=O)Cc1ccc(Cl)c(Cl)c1)[C@@H]1CCCC[C@H]1N1CCCC1` (relative stereo): in experiment [4], the analgesic activity result was “analgesic activity without attendant dependence liability” and the kappa agonist activity entry was “selective kappa agonist activity”.

Regarding `CO[C@H]1CC[C@@H](N2CCCC2)[C@H](N(C)C(=O)C2c3ccccc3-c3ccccc32)C1` (relative stereo), in experiment [1], the “Rat Paw Pressure MPE50” value is greater than 1 mg/kg. In experiment [2], the inhibition constant Ki was 2130 nM. Moreover, in experiment [3], the Opioid Binding mu/k came out at 318 and the Ki worked out at 6.7 nM.

For the molecule `CO[C@H]1CC[C@@H](N2CCCC2)[C@H](N(C)C(=O)Cc2cccc3occc23)C1` (relative stereo), in experiment [1], the “Rat Paw Pressure MPE50” value is 5.6 mg/kg. The inhibitory constant (Ki) in experiment [2] was 11000 nM; in experiment [3] it was 135 nM. The Opioid Binding mu/k in experiment [3] is 81.

`CO[C@@H]1CC[C@@H](N(C)C(=O)Cc2cccc3occc23)[C@H](N2CCCC2)C1` (relative stereo): the “Rat Paw Pressure MPE50” value in experiment [1] amounted to 0.07 mg/kg. In addition, in experiment [2], the inhibition constant (Ki) was determined as 3300 nM. For the same molecule, in experiment [3], the Opioid Binding mu/k is 465 and the inhibitory constant (Ki) is 7.1 nM.
